# Results reported in patent US20250214976A1, “GPR35 MODULATORS AND USES THEREOF” (Crossignal Therapeutics, Inc., priority 2022, published 2025).
# Amino acid sequences for entries named in this document (tags omitted).
# UniProt Q9HC97, whole entry: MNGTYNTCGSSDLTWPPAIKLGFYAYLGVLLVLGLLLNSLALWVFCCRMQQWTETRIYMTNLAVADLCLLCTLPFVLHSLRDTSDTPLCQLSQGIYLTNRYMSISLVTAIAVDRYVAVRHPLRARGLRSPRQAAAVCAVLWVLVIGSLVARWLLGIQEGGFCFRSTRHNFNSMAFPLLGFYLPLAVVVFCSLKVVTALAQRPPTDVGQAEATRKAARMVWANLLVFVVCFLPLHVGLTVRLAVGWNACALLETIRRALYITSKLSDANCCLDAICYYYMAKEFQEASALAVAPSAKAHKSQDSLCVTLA
# Target: human GPR35 (Homo sapiens, UniProt Q9HC97)
# Experiment: Luciferase Reporter Assay (YAP responsive element) in HEK293 cells stably transfected with human GPR35
# Conditions: read-out: Luciferase Reporter (IC50), overnight incubation
# Method: HEK293 cells stably transfected with human GPR35 were maintained in Dulbecco's Modified Eagle Medium (DMEM) supplemented with 10% FBS and 300 μg/mL Zeocin and 200 μg/mL Hygromycin at 37° C., 10% CO2. On Day 1, cells were plated in poly-D-lysine coated 96-well tissue culture plate in regular growth medium (DMEM/10% FBS/300 μg/mL Zeocin/200 μg/mL Hygromycin. On the next day, luciferase reporter plasmid DNA with YAP responsive element was transfected into cells using lipofectamine 2000 (Invitrogen) following manufacture's protocol. After transfection for 6 hr., cells were treated with testing compounds in fasting DMEM medium (phenol red free, FBS free) at varying compound concentrations ranging from 10 μM to […] in a 3-fold serial diluted fashion. After an overnight incubation, the luciferase activities were measured with SteadyLite Plus Kit (PerkinElmer) according to manufacturer's protocol. IC50 was determined by fitting the dose-response data to a four-parameter logistic curve using GraphPad Prism.
# The symbol “+” indicates IC50 is greater than […]. “++” indicates IC50>100 nM but ≤[…]. “+++” indicates IC50≤100 nM.
structure (smiles),measurement,value
O=C(Nc1ccc(OC2CC(F)(F)C2)c(F)c1)c1coc2cc(Oc3nnn[nH]3)c(F)cc12,IC50,< 100 nM
